# Assay results: ChEMBL document CHEMBL1157818, “Conformationally constrained kappa receptor agonists: stereoselective synthesis and pharmacological evaluation of 6,8-diazabicyclo[3.2.2]nonane derivatives” (J Med Chem, 2010)
# Protein sequences, listed by entry. Tags and fused reporters are not part of them. Lines headed by an entry give the natural chain unless they say otherwise; changes in a name come on top.
# UniProt P41144: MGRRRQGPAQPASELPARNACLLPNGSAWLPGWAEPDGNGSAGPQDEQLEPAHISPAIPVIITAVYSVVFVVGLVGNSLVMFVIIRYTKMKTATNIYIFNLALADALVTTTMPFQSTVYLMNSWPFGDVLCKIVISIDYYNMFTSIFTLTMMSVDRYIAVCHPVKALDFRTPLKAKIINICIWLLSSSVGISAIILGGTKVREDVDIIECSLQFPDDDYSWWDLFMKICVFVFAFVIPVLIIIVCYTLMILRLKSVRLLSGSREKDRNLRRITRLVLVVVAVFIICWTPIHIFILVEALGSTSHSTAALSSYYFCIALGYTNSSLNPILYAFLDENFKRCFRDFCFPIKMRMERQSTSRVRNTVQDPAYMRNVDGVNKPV
# Molecular target: Kappa-type opioid receptor (Cavia porcellus, UniProt P41144)
# Experiment: Displacement of [3H]U69593 from kappa opioid receptor in guinea pig brain membrane after 150 mins by scintillation counting
row,Structure (SMILES),Ki [pM]
1,CN(C(=O)Cc1ccc(Cl)c(Cl)c1)C1CCCCC1N1CCCC1 (configuration not stated),310
2,CN(C(=O)Cc1ccccc1)[C@H]1CC[C@@]2(CCCO2)C[C@@H]1N1CCCC1,970
